Cyclic peptide permeability, from CycPeptMPDB

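Conditions beyond the assay type are not listed; see the original paper. The list need not hold all peptides of the study. Entries at the database's floor value (log10 P of -10) are not listed.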

PAMPA is the parallel artificial membrane permeability assay, which has no cells and reads passive diffusion. Values are log10 P with P in cm/s, so -5 is more permeable than -7.

| SMILES | PAMPA (log10 cm/s) |
|---|---|
| CC(=O)N1CCC[C@H]1C(=O)N[C@@H]1C(=O)N(C)[C@H](CC(C)C)C(=O)N[C@@H](CC(C)C)C(=O)N[C@H](CC(C)C)C(=O)N(C)[C@@H](CC(C)C)C(=O)N[C@@H](C)C(=O)N[C@@H](CC(C)C)C(=O)N2CCC[C@@H]2C(=O)O[C@@H]1C | -5.64 |
| CC(=O)N1CCC[C@@H]1C(=O)N(C)[C@@H](CC(C)C)C(=O)N[C@@H]1C(=O)N[C@H](CC(C)C)C(=O)N[C@H](CC(C)C)C(=O)N(C)[C@H](CC(C)C)C(=O)N[C@H](C)C(=O)N[C@@H](CC(C)C)C(=O)N2CCC[C@@H]2C(=O)O[C@@H]1C | -5.48 |
| CC(=O)N1CCC[C@@H]1C(=O)N(C)[C@@H](CC(C)C)C(=O)N[C@@H]1C(=O)N[C@H](CC(C)C)C(=O)N[C@H](CC(C)C)C(=O)N[C@H](CC(C)C)C(=O)N(C)[C@H](C)C(=O)N[C@@H](CC(C)C)C(=O)N2CCC[C@@H]2C(=O)O[C@@H]1C | -5.84 |
| CC(=O)N1CCC[C@H]1C(=O)N[C@@H]1C(=O)N[C@H](CC(C)C)C(=O)N(C)[C@@H](CC(C)C)C(=O)N(C)[C@@H](CC(C)C)C(=O)N(C)[C@@H](CC(C)C)C(=O)N(C)[C@H](C)C(=O)N[C@@H](CC(C)C)C(=O)N2CCC[C@@H]2C(=O)O[C@@H]1C | -5.01 |
| CC(=O)N1CCC[C@H]1C(=O)N(C)[C@@H](CC(C)C)C(=O)N[C@@H]1C(=O)N[C@H](CC(C)C)C(=O)N[C@@H](CC(C)C)C(=O)N[C@@H](CC(C)C)C(=O)N[C@@H](C)C(=O)N[C@H](CC(C)C)C(=O)N2CCC[C@H]2C(=O)O[C@@H]1C | -7.05 |
| CC(=O)N1CCC[C@H]1C(=O)N(C)[C@H](CC(C)C)C(=O)N[C@@H]1C(=O)N[C@@H](CC(C)C)C(=O)N(C)[C@H](CC(C)C)C(=O)N[C@H](CC(C)C)C(=O)N(C)[C@@H](C)C(=O)N[C@@H](CC(C)C)C(=O)N2CCC[C@@H]2C(=O)O[C@@H]1C | -5.72 |
| CC(=O)N1CCC[C@H]1C(=O)N(C)[C@H](CC(C)C)C(=O)N[C@@H]1C(=O)N[C@H](CC(C)C)C(=O)N(C)[C@H](CC(C)C)C(=O)N[C@H](CC(C)C)C(=O)N(C)[C@H](C)C(=O)N[C@@H](CC(C)C)C(=O)N2CCC[C@H]2C(=O)O[C@@H]1C | -5.40 |
| CC(=O)N1CCC[C@H]1C(=O)N(C)[C@@H](CC(C)C)C(=O)N[C@@H]1C(=O)N[C@H](CC(C)C)C(=O)N(C)[C@@H](CC(C)C)C(=O)N(C)[C@@H](CC(C)C)C(=O)N[C@@H](C)C(=O)N[C@H](CC(C)C)C(=O)N2CCC[C@H]2C(=O)O[C@@H]1C | -5.37 |
| CC(=O)N1CCC[C@@H]1C(=O)N(C)[C@H](CC(C)C)C(=O)N[C@@H]1C(=O)N(C)[C@@H](CC(C)C)C(=O)N(C)[C@@H](CC(C)C)C(=O)N[C@H](CC(C)C)C(=O)N(C)[C@H](C)C(=O)N[C@H](CC(C)C)C(=O)N2CCC[C@@H]2C(=O)O[C@@H]1C | -5.63 |
| CC(=O)N1CCC[C@H]1C(=O)N[C@@H]1C(=O)N[C@H](CC(C)C)C(=O)N(C)[C@@H](CC(C)C)C(=O)N(C)[C@@H](CC(C)C)C(=O)N(C)[C@H](CC(C)C)C(=O)N[C@H](C)C(=O)N[C@@H](CC(C)C)C(=O)N2CCC[C@@H]2C(=O)O[C@@H]1C | -5.06 |
| CC(=O)N1CCC[C@@H]1C(=O)N(C)[C@@H](CC(C)C)C(=O)N[C@@H]1C(=O)N(C)[C@@H](CC(C)C)C(=O)N[C@@H](CC(C)C)C(=O)N(C)[C@H](CC(C)C)C(=O)N[C@@H](C)C(=O)N[C@H](CC(C)C)C(=O)N2CCC[C@@H]2C(=O)O[C@@H]1C | -6.34 |
| CC(=O)N1CCC[C@H]1C(=O)N(C)[C@@H](CC(C)C)C(=O)N[C@@H]1C(=O)N(C)[C@@H](CC(C)C)C(=O)N(C)[C@H](CC(C)C)C(=O)N(C)[C@@H](CC(C)C)C(=O)N(C)[C@@H](C)C(=O)N[C@H](CC(C)C)C(=O)N2CCC[C@H]2C(=O)O[C@@H]1C | -5.21 |
| CC(=O)N1CCC[C@H]1C(=O)N[C@@H]1C(=O)N[C@H](CC(C)C)C(=O)N(C)[C@H](CC(C)C)C(=O)N(C)[C@H](CC(C)C)C(=O)N(C)[C@@H](CC(C)C)C(=O)N(C)[C@H](C)C(=O)N[C@@H](CC(C)C)C(=O)N2CCC[C@@H]2C(=O)O[C@@H]1C | -5.23 |
| CC(=O)N1CCC[C@H]1C(=O)N(C)[C@@H](CC(C)C)C(=O)N[C@@H]1C(=O)N(C)[C@@H](CC(C)C)C(=O)N(C)[C@@H](CC(C)C)C(=O)N[C@H](CC(C)C)C(=O)N(C)[C@@H](C)C(=O)N[C@H](CC(C)C)C(=O)N2CCC[C@H]2C(=O)O[C@@H]1C | -6.94 |
| CC(=O)N1CCC[C@H]1C(=O)N(C)[C@@H](CC(C)C)C(=O)N[C@@H]1C(=O)N[C@H](CC(C)C)C(=O)N(C)[C@H](CC(C)C)C(=O)N[C@H](CC(C)C)C(=O)N(C)[C@@H](C)C(=O)N[C@H](CC(C)C)C(=O)N2CCC[C@H]2C(=O)O[C@@H]1C | -5.27 |
| CC(=O)N1CCC[C@H]1C(=O)N[C@@H]1C(=O)N(C)[C@H](CC(C)C)C(=O)N[C@@H](CC(C)C)C(=O)N(C)[C@H](CC(C)C)C(=O)N[C@H](CC(C)C)C(=O)N(C)[C@@H](C)C(=O)N[C@@H](CC(C)C)C(=O)N2CCC[C@@H]2C(=O)O[C@@H]1C | -4.80 |
| CC(=O)N1CCC[C@@H]1C(=O)N(C)[C@H](CC(C)C)C(=O)N[C@@H]1C(=O)N(C)[C@@H](CC(C)C)C(=O)N[C@H](CC(C)C)C(=O)N(C)[C@@H](CC(C)C)C(=O)N[C@@H](C)C(=O)N[C@@H](CC(C)C)C(=O)N2CCC[C@@H]2C(=O)O[C@@H]1C | -7.00 |
| CC(=O)N1CCC[C@@H]1C(=O)N(C)[C@@H](CC(C)C)C(=O)N[C@@H]1C(=O)N[C@H](CC(C)C)C(=O)N(C)[C@@H](CC(C)C)C(=O)N[C@H](CC(C)C)C(=O)N(C)[C@H](C)C(=O)N[C@@H](CC(C)C)C(=O)N2CCC[C@H]2C(=O)O[C@@H]1C | -5.71 |
| CC(=O)N1CCC[C@@H]1C(=O)N(C)[C@@H](CC(C)C)C(=O)N[C@@H]1C(=O)N[C@H](CC(C)C)C(=O)N(C)[C@@H](CC(C)C)C(=O)N(C)[C@H](CC(C)C)C(=O)N(C)[C@@H](C)C(=O)N[C@@H](CC(C)C)C(=O)N2CCC[C@@H]2C(=O)O[C@@H]1C | -5.66 |
| CC(=O)N1CCC[C@@H]1C(=O)N(C)[C@@H](CC(C)C)C(=O)N[C@@H]1C(=O)N(C)[C@H](CC(C)C)C(=O)N(C)[C@H](CC(C)C)C(=O)N[C@H](CC(C)C)C(=O)N[C@@H](C)C(=O)N[C@H](CC(C)C)C(=O)N2CCC[C@@H]2C(=O)O[C@@H]1C | -5.70 |
| CC(=O)N1CCC[C@H]1C(=O)N(C)[C@@H](CC(C)C)C(=O)N[C@@H]1C(=O)N(C)[C@@H](CC(C)C)C(=O)N(C)[C@H](CC(C)C)C(=O)N(C)[C@@H](CC(C)C)C(=O)N(C)[C@H](C)C(=O)N[C@H](CC(C)C)C(=O)N2CCC[C@@H]2C(=O)O[C@@H]1C | -5.36 |
| CC(=O)N1CCC[C@H]1C(=O)N(C)[C@@H](CC(C)C)C(=O)N[C@@H]1C(=O)N[C@@H](CC(C)C)C(=O)N[C@@H](CC(C)C)C(=O)N[C@@H](CC(C)C)C(=O)N[C@@H](C)C(=O)N[C@H](CC(C)C)C(=O)N2CCC[C@@H]2C(=O)O[C@@H]1C | -9.00 |

Excerpt, the opening 4 entries:

{"smiles": "CC(=O)N1CCC[C@H]1C(=O)N[C@@H]1C(=O)N(C)[C@H](CC(C)C)C(=O)N[C@@H](CC(C)C)C(=O)N[C@H](CC(C)C)C(=O)N(C)[C@@H](CC(C)C)C(=O)N[C@@H](C)C(=O)N[C@@H](CC(C)C)C(=O)N2CCC[C@@H]2C(=O)O[C@@H]1C", "PAMPA (log10 cm/s)": "-5.64"}
{"smiles": "CC(=O)N1CCC[C@@H]1C(=O)N(C)[C@@H](CC(C)C)C(=O)N[C@@H]1C(=O)N[C@H](CC(C)C)C(=O)N[C@H](CC(C)C)C(=O)N(C)[C@H](CC(C)C)C(=O)N[C@H](C)C(=O)N[C@@H](CC(C)C)C(=O)N2CCC[C@@H]2C(=O)O[C@@H]1C", "PAMPA (log10 cm/s)": "-5.48"}
{"smiles": "CC(=O)N1CCC[C@@H]1C(=O)N(C)[C@@H](CC(C)C)C(=O)N[C@@H]1C(=O)N[C@H](CC(C)C)C(=O)N[C@H](CC(C)C)C(=O)N[C@H](CC(C)C)C(=O)N(C)[C@H](C)C(=O)N[C@@H](CC(C)C)C(=O)N2CCC[C@@H]2C(=O)O[C@@H]1C", "PAMPA (log10 cm/s)": "-5.84"}
{"smiles": "CC(=O)N1CCC[C@H]1C(=O)N[C@@H]1C(=O)N[C@H](CC(C)C)C(=O)N(C)[C@@H](CC(C)C)C(=O)N(C)[C@@H](CC(C)C)C(=O)N(C)[C@@H](CC(C)C)C(=O)N(C)[C@H](C)C(=O)N[C@@H](CC(C)C)C(=O)N2CCC[C@@H]2C(=O)O[C@@H]1C", "PAMPA (log10 cm/s)": "-5.01"}

Data: CycPeptMPDB; original report Kelly et al. 2021, doi:10.1021/jacs.0c06115.